Assays:
[1] = system: HER-2 positive metastatic BC; conditions: single agent therapy; cited from earlier work
MCF-7 cells = assay: WST-8 growth inhibition of cultured breast cancer cells; type: cell-based, human
Procedure: (§1) In another example, the expression of thymidylate synthase (TS) was correlated with the response of breast cancer cells to the chemotherapeutic drug 5-fluorouracil (5-FU). TS is a key enzyme in DNA biosynthesis and has been postulated to play a major role in predicting the response to 5-FU based chemotherapy. Experiments were conducted to examine this relationship. Experimental conditions and analysis methods were similar to those used with Herceptin. Doses ranged from 5-300 μg/ml.

HCC 2218 cells = assay: as above; type: cell-based, human
Procedure: as §1

SKBR-3 cells = assay: as above; type: cell-based, human; conditions: Herceptin
Procedure: as §1, with “Experimental conditions and analysis methods were similar to those used with Herceptin.” left out

HCC 202 cells = assay: as above; type: cell-based, human; conditions: Trastuzumab
Procedure: as §1, with “Experimental conditions and analysis methods were similar to those used with Herceptin.” left out

HCC 38 cells = assay: as above; type: cell-based, human; conditions: Trastuzumab
Procedure: as §1, with “Experimental conditions and analysis methods were similar to those used with Herceptin.” left out

[2] = Herceptin, 72 hours post treatment
[3] = Herceptin, HCC 2218 cells, 72 hours post treatment

IC50-1 (MCF-7 cells; [2]): 1250 µg/mL
IC50-2 (MCF-7 cells; [2]): 1360 µg/mL
IC50 (MCF-7 cells; Trastuzumab): 1250 µg/mL
IC50-1 (HCC 2218 cells; [3]): 60 µg/mL
IC50-2 (HCC 2218 cells; [3]): 120 µg/mL
IC50 (HCC 2218 cells; Trastuzumab, HCC 2218 cells): 60 µg/mL
IC50-2 (SKBR-3 cells; SKBR 3 cells, 72 hours post treatment): 650 µg/mL
IC50 (HCC 202 cells): NR* (NR = No Response)
IC50 (HCC 38 cells): NR* (NR = No Response)
Substance: trastuzumab [Herceptin]
patients who respond [1]: < 30%
lowest concentration with response (dose-related inhibition of proliferation) (HCC 2218 cells; Herceptin, HCC2218 cells): 0.032 mg/mL
lowest concentration with response (dose-related inhibition of proliferation) (SKBR-3 cells; SKBR-3 cells): 0.125 mg/mL

Source: US20070071762A1, “COMPREHENSIVE DIAGNOSTIC TESTING PROCEDURES FOR PERSONALIZED ANTICANCER CHEMOTHERAPY (PAC)” (CCC Diagnostics, LLC, priority 2005, published 2007)
